Data as given in patent US10946023B2, “Therapeutically active compounds and their methods of use” (Agios Pharmaceuticals, Inc., priority 2013, dated 2021).

Test system: HT1080 cells
Assay: HT1080 cellular assay, 2-HG by LC-MS (IDH1 R132C)
Assay type: cell-based
Conditions: Homo sapiens, HT-1080
Procedure: The following describes the experimental procedures that can be used to obtain data on column 5 of Table 4.
Cells (HT1080 or U87MG) are grown in T125 flasks in DMEM containing 10% FBS, 1× penicillin/streptomycin and 500 ug/mL G418 (present in U87MG cells only). They are harvested by trypsin and seeded into 96 well white bottom plates at a density of 5000 cell/well in 100 ul/well in DMEM with 10% FBS. No cells are placed in columns 1 and 12. Cells are incubated overnight at 37° C. in 5% CO2. The next day test compounds are made up at 2× the final concentration and 100 ul are added to each cell well. The final concentration of DMSO is 0.2% and the DMSO control wells are plated in row G. The plates are then placed in the incubator for 48 hours. At 48 hours, 100 ul of media is removed from each well and analyzed by LC-MS for 2-HG concentrations. The cell plate is placed back in the incubator for another 24 hours. At 72 hours post compound addition, 10 mL/plate of Promega Cell Titer Glo reagent is thawed and mixed. The cell plate is removed from the incubator and allowed to equilibrate to room temperature. Then 100 ul of Promega Cell Titer Glo reagent is added to each well of media. The cell plate is then placed on an orbital shaker for 10 minutes and then allowed to sit at room temperature for 20 minutes. The plate is then read for luminescence with an integration time of 500 ms. […]

IC50: 100 to 1000 nM
Compound: CC(Nc1cc(NC(C)C2CC2)nc(-c2cccc(C(F)(F)F)n2)n1)C1CC1 (stereo not shown) [Compound 420]
